From paper PMC4281354, “The opioid receptor pharmacology of GSK1521498 compared to other ligands with differential effects on compulsive reward-related behaviours” (Psychopharmacology, 2014)

Chains of the proteins cited; added tags and fusions are not shown.
UniProt P35372, whole entry: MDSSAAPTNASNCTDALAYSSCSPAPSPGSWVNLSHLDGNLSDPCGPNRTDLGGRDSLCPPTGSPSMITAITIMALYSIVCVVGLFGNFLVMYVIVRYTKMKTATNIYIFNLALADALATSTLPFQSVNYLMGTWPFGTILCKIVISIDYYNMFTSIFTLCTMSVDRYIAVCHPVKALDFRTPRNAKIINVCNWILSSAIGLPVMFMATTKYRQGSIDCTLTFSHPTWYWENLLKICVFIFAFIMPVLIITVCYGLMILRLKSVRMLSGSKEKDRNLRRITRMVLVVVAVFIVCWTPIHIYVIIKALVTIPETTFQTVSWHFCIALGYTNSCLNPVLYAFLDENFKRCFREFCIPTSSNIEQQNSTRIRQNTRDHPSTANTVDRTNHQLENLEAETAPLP

Target: MOPr (Homo sapiens, UniProt P35372)
Test: Basal [35S]GTPγS binding, membranes from CHO cells expressing a low level of MOPr
Type: biochemical

DAMGO
stimulation of [35S]GTPγS binding: over 50%
